Like-named read-outs stand apart in the source and are kept apart here.
How the values were obtained:
GPR40 = GPR40 (UniProt O14842); test: GPR40 Calcium Flux Assay; conditions: read-out: GPR40 Calcium Flux Assay EC50; transfected HEK293 cells stably expressing human or rat GPR40; species not given
[1] = biological target: Human GPR120 short form (short splice variant, NM_001195755.1) (Homo sapiens, UniProt Q5NUL3); test: Human GPR120 Calcium Flux Assay
[2] = biological target: short form of the GPR120 receptor (Homo sapiens, UniProt Q5NUL3); test: Human GPR120 DiscoveRx PathHunter Beta-Arrestin Assay, Procedure B; conditions: read-out: Human GPR120 Beta-Arrestin Assay Procedure B EC50, PathHunter CHO-K1 GPR120S cells, 5000 cells/well
[3] = biological target: long form of human GPR120 (Homo sapiens, UniProt Q5NUL3); test: Human GPR120 DiscoveRx PathHunter Beta-Arrestin Assay, Procedure A; conditions: read-out: Human GPR120 Beta-Arrestin Assay Procedure A EC50, PathHunter CHO-K1 GPR120 cells, 3000 cells per well
[4] = read-out: Human GPR120 Calcium Flux Assay Procedure B EC50, HEK-293 cells, 4200 cells/well
[5] = read-out: Human GPR120 Calcium Flux Assay Procedure A EC50, HEK-293 cells, 2500 cells/well

Amino acid sequences for entries named in this document (tags omitted). A change or cut given only in a name is not applied to a line headed by its entry. Residues count along the entry.
UniProt O14842, whole entry: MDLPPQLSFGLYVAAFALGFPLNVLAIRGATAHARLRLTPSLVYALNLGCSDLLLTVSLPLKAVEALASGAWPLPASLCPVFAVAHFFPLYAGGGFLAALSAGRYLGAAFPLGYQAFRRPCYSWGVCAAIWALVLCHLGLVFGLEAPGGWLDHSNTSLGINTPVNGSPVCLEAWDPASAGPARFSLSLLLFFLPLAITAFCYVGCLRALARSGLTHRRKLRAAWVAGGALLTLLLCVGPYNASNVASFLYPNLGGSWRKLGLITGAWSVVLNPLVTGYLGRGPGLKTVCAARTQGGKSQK
UniProt Q5NUL3, whole entry: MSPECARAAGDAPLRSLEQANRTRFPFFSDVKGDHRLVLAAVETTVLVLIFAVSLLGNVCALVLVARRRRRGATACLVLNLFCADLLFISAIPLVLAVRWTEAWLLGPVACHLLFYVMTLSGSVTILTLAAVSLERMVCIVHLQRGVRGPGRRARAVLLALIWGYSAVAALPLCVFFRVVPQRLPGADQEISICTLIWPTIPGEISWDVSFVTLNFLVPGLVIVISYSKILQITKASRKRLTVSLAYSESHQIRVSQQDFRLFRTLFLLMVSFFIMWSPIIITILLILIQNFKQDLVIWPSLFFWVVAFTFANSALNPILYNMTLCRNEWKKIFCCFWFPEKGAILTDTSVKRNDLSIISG
UniProt Q5NUL3, 1-377 isoform 1: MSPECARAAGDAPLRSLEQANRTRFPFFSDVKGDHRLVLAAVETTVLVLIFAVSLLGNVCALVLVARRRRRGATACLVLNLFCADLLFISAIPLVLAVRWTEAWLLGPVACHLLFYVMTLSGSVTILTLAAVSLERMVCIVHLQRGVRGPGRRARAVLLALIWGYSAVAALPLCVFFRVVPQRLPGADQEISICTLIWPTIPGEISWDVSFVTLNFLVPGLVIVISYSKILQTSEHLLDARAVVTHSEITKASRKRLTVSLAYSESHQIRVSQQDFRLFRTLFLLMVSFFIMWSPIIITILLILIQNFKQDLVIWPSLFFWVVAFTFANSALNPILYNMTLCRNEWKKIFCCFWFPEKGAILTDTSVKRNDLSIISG

EC50 (GPR40) [nM]	EC50 [1, 4] [nM]	Compound	further results
70	478	O=C(O)CCc1ccc(OCC2=C(C3CCCC3)COCC2)cc1C(F)(F)F	–
–	193	O=C(O)CCc1cc(F)c(OCC2=C(c3ccc(Cl)cc3)COCC2)c(F)c1	EC50 [2]: 159 nM
–	684	O=C(O)CCc1ccc(OCC2=C(c3ccc(Cl)cc3)CCOCC2)cc1C(F)(F)F	–
–	> 5000	Cc1ccc(C2=C(COc3ccc(CCC(=O)O)c(C(F)(F)F)c3)CCOC2)cc1-c1ccccc1	–
3670	379	Cc1ccc(C2=C(COc3ccc(CCC(=O)O)c(F)c3F)CCOCC2)cc1F	–
–	226	Cc1c(CCC(=O)O)ccc(OCC2=C(c3ccccc3)COC2)c1C	EC50 [3]: 446 nM; EC50 [1, 5]: 1040 nM
–	3980	Cc1cc(CCC(=O)O)ccc1OCC1=C(c2ccc(F)cc2)CS(=O)(=O)C1	–
1240	503	O=C(O)CCc1ccc(OCC2=C(C3CCCC3)COC2)cc1F	–
272	515	O=C(O)CCc1ccc(OCC2=C(C3C=CCC3)CCOC2)cc1Cl (stereo not shown)	–
–	92	Cc1c(CCC(=O)O)ccc(OCC2=C(c3ccc(Cl)cc3)COC2)c1C	EC50 [3]: 101 nM; EC50 [1, 5]: 387 nM
4140	670	Cc1ccc(C2=C(COc3cc(C)c(CCC(=O)O)cc3F)CCOCC2)cc1F	–
4320	131	Cc1ccc(C2=C(COc3c(F)cc(CCC(=O)O)cc3F)CCOC2)cc1F	–
–	> 5000	Cc1ccc(C2=C(COc3ccc(CCC(=O)O)c(C(F)(F)F)c3)CCOC2)c(C(C)C)c1	–
–	1120	Cc1ccc(C2=C(COc3ccc(CCC(=O)O)c(C(F)(F)F)c3)CCOC2)c(F)c1	–
–	546	O=C(O)CCc1ccc(OCC2=C(c3ccccc3)COCC2)cc1C(F)(F)F	–
> 10000	94	Cc1c(CCC(=O)O)ccc(OCC2=C(c3ccc(Cl)cc3)CCOCC2)c1C	–
–	> 5000	O=C(O)CCc1cc(F)c(OCC2=C(c3ccc(F)cc3)CS(=O)(=O)C2)c(F)c1	–

EC50 (GPR40) [nM]	EC50 [1, 4] [nM]	Compound	further results
–	> 5000	Cc1ccc(C2=C(COc3ccc(CCC(=O)O)c(C(F)(F)F)c3)CCOC2)c(-c2ccccc2)c1	–
2590	274	Cc1ccc(C2=C(COc3c(F)cc(CCC(=O)O)cc3F)CCOCC2)cc1F	–
–	429	Cc1ccc(C2=C(COc3ccc(CCC(=O)O)c(C(F)(F)F)c3)CCOC2)cc1	–
–	309	O=C(O)CCc1cc(F)c(OCC2=C(c3ccc(F)cc3)CSC2)c(F)c1	EC50 [2]: 317 nM
1130	709	Cc1cc(OCC2=C(C3CCCC3)COC2)ccc1CCC(=O)O	–
150	1020	O=C(O)CCc1ccc(OCC2=C(C3C=CCC3)CCOC2)cc1C(F)(F)F (stereo not shown)	–
–	> 5000	Cc1ccc(C2=C(COc3ccc(CCC(=O)O)c(C(F)(F)F)c3)CCOC2)c(C)c1	–
> 10000	160	Cc1ccc(C2=C(COc3ccc(CCC(=O)O)c(F)c3F)CCOC2)cc1F	–
–	599	O=C(O)CCc1ccc(OCC2=C(c3ccc(Cl)cc3)COCC2)cc1C(F)(F)F	EC50 [2]: 894 nM
> 10000	155	Cc1ccc(C2=C(COc3ccc(CCC(=O)O)c(C)c3C)CCOC2)cc1F	–
2030	948	Cc1ccc(C2=C(COc3ccc(CCC(=O)O)c(C(F)(F)F)c3)CCOCC2)cc1F	–
364	1450	O=C(O)CCc1ccc(OCC2=C(C3CCCC3)COC2)cc1C(F)(F)F	–
–	2900	Cc1ccc(C2=C(COc3ccc(CCC(=O)O)c(C(F)(F)F)c3)CCOC2)cc1C(C)C	–
187	452	O=C(O)CCc1ccc(OCC2=C(C3CCCC3)CCOCC2)cc1C(F)(F)F	–
–	778	O=C(O)CCc1ccc(OCC2=C(c3ccc(Cl)cc3)COCC2)cc1CC1CC1	–
–	621	Cc1ccc(C2=C(COc3ccc(CCC(=O)O)c(C(F)(F)F)c3)CCOCC2)cc1	–

Reference: patent publication US20210024483A1, “HETEROCYLCOALKENYL DERIVATIVES USEFUL AS AGONISTS OF THE GPR120 AND / OR GPR40” (Janssen Pharmaceutica NV, priority 2018, published 2021)
